From article PMC10865350, “Investigating Polypharmacology through Targeting Known Human Neutrophil Elastase Inhibitors to Proteinase 3” (Journal of Chemical Information and Modeling, 2024)

By UniProt entry, the sequences of proteins in these tests, tags left out. Residues count along the entry.
UniProt P24158, 28-256 limits assumed: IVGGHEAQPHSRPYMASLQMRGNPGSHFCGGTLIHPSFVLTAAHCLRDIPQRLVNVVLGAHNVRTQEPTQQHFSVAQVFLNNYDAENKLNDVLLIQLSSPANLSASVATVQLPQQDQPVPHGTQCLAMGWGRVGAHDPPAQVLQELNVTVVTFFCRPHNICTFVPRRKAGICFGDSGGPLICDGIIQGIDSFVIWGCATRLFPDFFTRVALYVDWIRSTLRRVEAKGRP
UniProt P08246, 30-267 limits assumed: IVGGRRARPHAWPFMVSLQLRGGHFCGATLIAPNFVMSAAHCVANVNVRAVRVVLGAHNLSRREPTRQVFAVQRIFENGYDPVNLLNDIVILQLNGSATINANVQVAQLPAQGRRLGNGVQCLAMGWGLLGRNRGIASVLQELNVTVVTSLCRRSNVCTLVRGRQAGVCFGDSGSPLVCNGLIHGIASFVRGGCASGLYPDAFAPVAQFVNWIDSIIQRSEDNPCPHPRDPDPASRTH

Experiments:
[1] = molecular target: Proteinase 3 (PR3) (Homo sapiens, UniProt P24158); assay: Enzymatic activity assay, PR3 (FRET peptide Abz-VADnVADYQ-EDDnp); assay type: biochemical; conditions: read-out: IC50 PR3; racemates (±) and S-enantiomers, Table S11
[2] = molecular target: HNE (Homo sapiens, UniProt P08246); assay: Enzymatic activity assay, HNE (fluorogenic substrate MeOSuc-AAPV-AMC); assay type: biochemical; conditions: read-out: IC50 HNE; racemates (±) and S-enantiomers, Table S11

What does the source list for `CC1=C(C#N)[C@H](c2ccc(C#N)cc2)n2nc(NC(=O)C3CC3)nc2N1c1cccc(C(F)(F)F)c1`?
IC50 [1]: 19500 nM; IC50 [2]: 798 nM

With `CNC(=O)Nc1nc2n(n1)C(c1ccc(C#N)cc1)C(C#N)=C(C)N2c1cccc(C(F)(F)F)c1` (racemic) as the compound, how does the IC50 [1] read?
The IC50 was 133 nM.

What about the IC50 [2] of the same compound?
Its IC50 is 1.5 nM.

Which IC50 [1] does the source give for `CNC(=O)Nc1nc2n(n1)[C@@H](c1ccc(C#N)cc1)C(C#N)=C(C)N2c1cccc(C(F)(F)F)c1` here?
The IC50 was 6300 nM.

And the IC50 [2]?
The IC50 was 122 nM.

How did the IC50 [1] turn out when `CC1=C(C#N)C(c2ccc(C#N)cc2)n2nc(NC(=O)C3CC3)nc2N1c1cccc(C(F)(F)F)c1` (racemic) was run?
The IC50 was 16.3 nM.

And the IC50 [2]?
Its IC50 is 1.4 nM.

What does the source list for `CNc1nc2n(n1)[C@@H](c1ccc(C#N)cc1)C(C#N)=C(C)N2c1cccc(C(F)(F)F)c1`?
IC50 [1]: 29300 nM; IC50 [2]: 128 nM

Which IC50 [1] does the source give for `CNc1nc2n(n1)C(c1ccc(C#N)cc1)C(C#N)=C(C)N2c1cccc(C(F)(F)F)c1` (racemic) here?
Its IC50 is 331 nM.

And the IC50 [2]?
The IC50 was 2.3 nM.

`COC(=O)Nc1nc2n(n1)C(c1ccc(C#N)cc1)C(C#N)=C(C)N2c1cccc(C(F)(F)F)c1` (racemic) was tested. Which IC50 [1] did it give?
The IC50 was 36.3 nM.

What about the IC50 [2] of the same compound?
Its IC50 is 1.4 nM.

`COC(=O)Nc1nc2n(n1)[C@@H](c1ccc(C#N)cc1)C(C#N)=C(C)N2c1cccc(C(F)(F)F)c1` was tested. Which IC50 [1] did it give?
Its IC50 is 4760 nM.

And the IC50 [2]?
The IC50 was 84.4 nM.
